This is an account of results in patent publication CN117384281A (DONGGUAN PENGZHI BIOTECHNOLOGY CO LTD, dated 2024).

By UniProt entry, the sequences of proteins in these tests, tags left out. Residues count along the entry.
UniProt P69905, 2-142 limits assumed, chain 1 of 2: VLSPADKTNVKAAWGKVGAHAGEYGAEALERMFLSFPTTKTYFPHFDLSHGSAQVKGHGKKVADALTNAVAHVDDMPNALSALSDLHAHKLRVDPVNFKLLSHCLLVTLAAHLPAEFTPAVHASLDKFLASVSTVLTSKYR
人糖化血红蛋白(购自英美特，货号KAY0025), UniProt P68871, 2-147 limits assumed, chain 2 of 2: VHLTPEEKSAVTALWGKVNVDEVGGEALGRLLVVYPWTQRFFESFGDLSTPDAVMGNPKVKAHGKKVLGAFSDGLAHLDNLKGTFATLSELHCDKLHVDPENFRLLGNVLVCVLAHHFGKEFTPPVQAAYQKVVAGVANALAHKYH

In assay [1] the target is 人糖化血红蛋白(购自英美特，货号KAY0025) (人 (human)) (UniProt P69905). Briefly: ELISA, antigen coated at 5 ug/ml, antibody at 0 ng/ml (blank), goat anti-mouse IgG-HRP. On the technique in general: In an ELISA, binding on a coated surface is turned into a signal by an enzyme label.
For assay [2] the target is unchanged. Briefly: ELISA, antigen coated at 5 ug/ml, antibody at 125 ng/ml, goat anti-mouse IgG-HRP.
For assay [3] the target is unchanged. Briefly: ELISA, antigen coated at 5 ug/ml, antibody at 31.25 ng/ml, goat anti-mouse IgG-HRP.
Assay [4] has the same target. Briefly: ELISA, antigen coated at 5 ug/ml, antibody at 250 ng/ml, goat anti-mouse IgG-HRP.
Assay [5] has the same target. Kind of assay: ELISA, antigen coated at 5 ug/ml, antibody at 62.5 ng/ml, goat anti-mouse IgG-HRP.
For assay [6] the target is unchanged. Kind of assay: ELISA, antigen coated at 5 ug/ml, antibody at 1000 ng/ml, goat anti-mouse IgG-HRP.
The target is the same in assay [7]. Briefly: BLI, antibody captured on AMC sensor, antigen in graded dilutions in PBST.
A further assay addresses 人糖化血红蛋白(购自英美特，货号KAY0025) (人 (human), UniProt P69905 2-142; P68871 2-147, 糖化 (HbA1c: 与葡萄糖结合); site not given). The assay is described as above.

Turning to 对照 (antibody), the OD值 (OD 450nm (参考630nm)) in assay [1] was found to be 0.066; in assay [2], 0.899; in assay [3], 0.289; in assay [4] it was 1.1; in assay [5], 0.491; in assay [6], 1.82. Further, in assay [7], the Kd – broadly, the constant that tells how readily two partners part at equilibrium – worked out at 322 nM. Also, the koff (in general, a measure of how fast the partners let go of each other) in assay [7] amounted to 0.000997 s⁻¹. The kon – broadly, a measure of how fast the partners come together – in assay [7] was 3100 M⁻¹ s⁻¹.

B1: Anti-HbA1C 17C9mut2 (antibody, V domains shown)
VH: QVQLEESGPGLVAPSQSLSITCTVSGFSLTSYGVHWVRQPPGKGLEWLGVIWAGGSTNYNSALMSRLTISKDNSKRQVFLKMNSLQTDDTAMYYCARDYYGYDFVYWGQGTLVTVSA
VL: DIVLTQSPATLSVTPGDSVSLSCRASQSVRNNLHWYQQKSHESPRLLIKYASQSISGIPSRFSGSGSGTNFTLSINTVETEDFGMYFCQQSNSWPLTFGAGTKLELKR
For the molecule B1, in the assay with 人糖化血红蛋白(购自英美特，货号KAY0025), the Kd is 29.4 nM, the koff was 0.000524 s⁻¹ and the kon worked out at 17800 M⁻¹ s⁻¹.

B2: Anti-HbA1C 17C9mut1 (antibody, mouse IgG1, kappa, V domains shown)
VH: QVQLEESGPGLVAPSQSLSITCTVSGFSLTSYGVHWVRQPPGKGLEWLGVIWAGGSTNYNSALMSRLTISKDNSKRQVFLKMNSLQTDDTAMYYCARDYYGYDFVYWGQGTLVTVSA
VL: DIVLTQSPATLSVTPGDSVSLSCRASQSVRNNLHWYQQKSHESPRLLIKYASQSISGIPSRFSGSGSGTDFTLSINTVETEDFGMYFCQQSNSWPLTFGAGTKLELKR
notes: Detected with goat anti-mouse IgG-HRP and captured on AMC sensors
In the assay with 人糖化血红蛋白(购自英美特，货号KAY0025), B2 showed a dissociation constant (Kd) of 29.3 nM, a koff of 0.000531 s⁻¹ and a kon of 18100 M⁻¹ s⁻¹.
